These results are taken from patent US20250230147A1, “LACTAMS AS CBL-B INHIBITORS” (Genentech, Inc., priority 2021, published 2025).

Sequences of proteins named here, by UniProt entry; tags and fusion partners are left off. Residues count along the entry.
UniProt Q13191, 40-426: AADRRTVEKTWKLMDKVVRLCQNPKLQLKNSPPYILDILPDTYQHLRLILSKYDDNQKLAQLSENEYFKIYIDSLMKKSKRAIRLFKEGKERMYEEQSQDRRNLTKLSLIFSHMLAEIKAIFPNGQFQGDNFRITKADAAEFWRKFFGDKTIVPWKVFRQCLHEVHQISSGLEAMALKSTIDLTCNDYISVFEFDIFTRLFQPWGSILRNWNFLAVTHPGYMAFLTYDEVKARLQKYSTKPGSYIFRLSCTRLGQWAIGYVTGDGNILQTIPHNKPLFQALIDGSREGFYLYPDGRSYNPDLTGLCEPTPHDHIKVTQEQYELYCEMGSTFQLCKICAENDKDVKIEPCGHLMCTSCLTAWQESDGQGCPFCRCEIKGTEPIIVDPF

The structures appear in SMILES notation.

One data set has as its target c-Cbl (Homo sapiens (Human), UniProt P22681). The data set can be described thus: C-Cbl LCK Ub TR-FRET assay (c-cbl Lck HTRF). It is filed as biochemical. The following applies: C-cbl Lck HTRF IC50 relative to Cbl-b Lck HTRF IC50. The protocol: 6 μL of detection mixture was added to all wells and briefly centrifuged before incubating for 20 min at room temperature. […] IC50 was generated using no LCK as the low control and DMSO as the high control.
In general terms: In TR-FRET formats the signal depends on donor and acceptor labels being close together.
With `Cn1cnnc1[C@H](F)C1(c2cccc(N3Cc4c(cc(CN5CCC6(CC6)C5)cc4C(F)(F)F)C3=O)c2)CC1` [Compound 27, (R)-6-(5-azaspiro[2.4]heptan-5-ylmethyl)-2-(3-(1-(fluoro(4-methyl-4H-1,2,4-triazol-3-yl)methyl)cyclopropyl)phenyl)-4-(trifluoromethyl)isoindolin-1-one], the “(fold-selectivity)” value was 1.6x. Take `Cn1cnnc1[C@H](F)[C@](C)(F)c1cccc(N2Cc3c(cc(CN4CCC5(CC5)C4)cc3C(F)(F)F)C2=O)c1` [Compound 127, 6-(5-azaspiro[2.4]heptan-5-ylmethyl)-2-(3-((1S,2R)-1,2-difluoro-1-(4-methyl-4H-1,2,4-triazol-3-yl)propan-2-yl)phenyl)-4-(trifluoromethyl)isoindolin-1-one]: the “(fold-selectivity)” value is on record as 2.2x. The same measure, in the same setting: the value for `Cn1cnnc1CC1(c2cccc(N3Cc4c(cc(CNC56CC(C)(C5)C6)cc4C(F)(F)F)C3=O)c2)CC(F)(F)C1.O=CO` [Compound 354, 2-(3-(3,3-difluoro-1-((4-methyl-4H-1,2,4-triazol-3-yl)methyl)cyclobutyl)phenyl)-6-(((3-methylbicyclo[1.1.1]pentan-1-yl)amino)methyl)-4-(trifluoromethyl)isoindolin-1-one formate] was “(0.55x)”; that for `Cn1cnnc1CC1(c2cccc(N3Cc4c(cc(CNC5(C)CCC5(C)C)cc4C(F)(F)F)C3=O)c2)CC(F)(F)C1.O=CO` (stereo not drawn) [Compound 355, 2-(3-(3,3-difluoro-1-((4-methyl-4H-1,2,4-triazol-3-yl)methyl)cyclobutyl)phenyl)-4-(trifluoromethyl)-6-(((1,2,2-trimethylcyclobutyl)amino)methyl) isoindin-1-one formate] was “(0.66x)”; that for `Cn1cnnc1CC1(c2cccc(N3Cc4c(cc(CNCC5COC(C)(C)O5)cc4C(F)(F)F)C3=O)c2)CC(F)(F)C1.O=CO` (stereo not drawn) [Compound 357, 2-(3-(3,3-difluoro-1-((4-methyl-4H-1,2,4-triazol-3-yl)methyl)cyclobutyl)phenyl)-6-((((2,2-dimethyl-1,3-dioxolan-4-yl)methyl)amino)methyl)-4-(trifluoromethyl)isoindolin-1-one formate] was “(1.1x)”. Consider `Cn1cnnc1CC1(c2cccc(N3Cc4c(cc(CNCC5CCOC5)cc4C(F)(F)F)C3=O)c2)CC(F)(F)C1.O=CO` (stereo not drawn) [Compound 358, 2-(3-(3,3-difluoro-1-((4-methyl-4H-1,2,4-triazol-3-yl)methyl)cyclobutyl)phenyl)-6-((((tetrahydrofuran-3-yl)methyl)amino)methyl)-4-(trifluoromethyl)isoindolin-1-one formate], for which the “(fold-selectivity)” value is “(0.91x)”.

In the case of `CCC1(NCc2cc3c(c(C(F)(F)F)c2)CN(c2cccc(C4(Cc5nncn5C)CC(F)(F)C4)c2)C3=O)CCC1.O=CO` [Compound 369, 2-(3-(3,3-difluoro-1-((4-methyl-4H-1,2,4-triazol-3-yl)methyl)cyclobutyl)phenyl)-6-(((1-ethylcyclobutyl)amino)methyl)-4-(trifluoromethyl)isoindolin-1-one formate], the “(fold-selectivity)” value is on record as “(0.90x)”. `CN1CC2CC(C1)N2Cc1cc2c(c(C(F)(F)F)c1)CN(c1cccc(C3(Cc4nncn4C)CC(F)(F)C3)c1)C2=O.O=CO` [Compound 413, 2-(3-(3,3-difluoro-1-((4-methyl-4H-1,2,4-triazol-3-yl)methyl)cyclobutyl)phenyl)-6-((3-methyl-3,6-diazabicyclo[3.1.1]heptan-6-yl)methyl)-4-(trifluoromethyl)isoindolin-1-one formate]: the “(fold-selectivity)” value is listed as “(0.90x)”. For `CN1CC(Cc2cc3c(c(C(F)(F)F)c2)CN(c2cccc(C4(Cc5nncn5C)CC(F)(F)C4)c2)C3=O)C1.O=CO` [Compound 442, 2-(3-(3,3-difluoro-1-((4-methyl-4H-1,2,4-triazol-3-yl)methyl)cyclobutyl)phenyl)-6-((1-methylazetidin-3-yl)methyl)-4-(trifluoromethyl)isoindolin-1-one formate], the “(fold-selectivity)” value is “(0.67x)”.

In a further data set the target is Cbl-b (Homo sapiens (Human), UniProt Q13191). The data set is described as follows: Cbl-b LCK Ub TR-FRET assay (Cbl-b Lck HTRF). Type of data set: biochemical. The following applies: Cbl-b over c-Cbl, Lck HTRF IC50. The protocol: Compounds were 3-fold serially diluted in DMSO in a 384-well polypropylene plate (#P-05525-BC; Labcyte) to generate a source plate with 10 concentrations of each compound, top concentration=2 mM. 80 nL of DMSO or compounds were transferred to each well of a black 384-well ProxiPlate (#6008260; PerkinElmer) using a Labcyte Echo. 1×assay buffer (50 mM HEPES pH7.0, 100 mM NaCl, 0.01% BSA, 0.01% Triton-X100, 1 mM DTT), 2×enzyme solution (16 nM Biotin-Cbl-b or 12 nM Biotin-c-Cbl in 1× assay buffer), 2×kinase mixture (120 nM His-LCK, 1 mM ATP, 10 mM MgCl2 in assay buffer) and 2.33×detection mixture (4.66×solution 1: 163 nM Anti-HA-D2 antibody (#610HADAB; PerkinElmer), 27.96 nM Streptavidin-EU (#AD0062; PerkinElmer), 1.398 mM EDTA in 1×assay buffer+4.66×solution 2: 2.796 μM UBE2D2/Methylated-HA-Ubiquitin thioester adduct (BostonBiochem) in 1×assay buffer) were prepared. 4 μL of 2× enzyme solution was added to each well containing compound, briefly centrifuged to mix, and incubated for 60 min at room temperature. 4 μL of 2× kinase mixture was added, briefly centrifuged to mix, and incubated for 90 min. at room temperature. […] Plates were read for TR-FRET using an Envision at excitation 340 nm, emission at 615 and 665 nm, 4 flashes per well. […]
Cbl-b Lck HTRF data in Table 7 is measured according to Example 76 herein; C-cbl Lck HTRF data is measured according to Example 76 herein.
`Cn1cnnc1[C@@H](F)[C@](C)(F)c1cccc(N2Cc3c(cc(CN4CCC5(CC5)C4)cc3C(F)(F)F)C2=O)c1` [Compound 129, 6-(5-azaspiro[2.4]heptan-5-ylmethyl)-2-(3-((1R,2R)-1,2-difluoro-1-(4-methyl-4H-1,2,4-triazol-3-yl)propan-2-yl)phenyl)-4-(trifluoromethyl)isoindolin-1-one] yielded a fold of selectivity of 3.6x.

Tested on in a further data set: not listed separately
The data set can be described thus: In vitro permeability assay in gMDCK cells. It is filed as in vitro ADME, canine. The following applies: dog, MDCK, 3 hour incubation, read-out: gMDCK (ratio): efflux ratio Papp, B-A/Papp, A-B. As for the experimental part:
Four days prior to use, MDCK cells were seeded at a density of 2.5×10^5 cells/mL in 24 well plates. Compounds were dissolved in transport buffer consisting of Hank's Balanced Salt Solution with 10 mM HEPES (Invitrogen Corporation, Grand Island, NY) at a concentration of 10 μM, and permeability was assessed in the apical to basolateral (A-B) and basolateral to apical (B-A) directions following a 3 hour incubation. Lucifer Yellow (Sigma Aldrich, St. Louis, MO) was used as the cell monolayer integrity marker. Test compound concentrations in the donor and receiving compartments were determined by LC-MS/MS. The apparent permeability (Papp) of test compounds was determined as follows:
Where dQ/dt is the rate of compound appearance in the receiver compartment, Q is the quantity of compound), C0 is the concentration in the donor compartment and A is the surface area of the insert. Efflux ratio was calculated as Papp, B-A/Papp, A-B.
Consider `Cn1cnnc1[C@H](F)C1(c2cccc(N3Cc4c(cc(CN5CCC6(CC6)C5)cc4C(F)(F)F)C3=O)c2)CC1` [Compound 27, (R)-6-(5-azaspiro[2.4]heptan-5-ylmethyl)-2-(3-(1-(fluoro(4-methyl-4H-1,2,4-triazol-3-yl)methyl)cyclopropyl)phenyl)-4-(trifluoromethyl)isoindolin-1-one], for which the efflux ratio at 3 h, 10 μM stood at 0.64. Still for that read-out and setting: as for `Cn1cnnc1[C@H](F)[C@](C)(F)c1cccc(N2Cc3c(cc(CN4CCC5(CC5)C4)cc3C(F)(F)F)C2=O)c1` [Compound 127, 6-(5-azaspiro[2.4]heptan-5-ylmethyl)-2-(3-((1S,2R)-1,2-difluoro-1-(4-methyl-4H-1,2,4-triazol-3-yl)propan-2-yl)phenyl)-4-(trifluoromethyl)isoindolin-1-one], the figure is 0.72.
